Experimental data as given in patent publication US20230235090A1 (HARBOUR BIOMED US, published 2023).

B1: PR004160 (bispecific antibody, human IgG1, kappa, L234A L235A)
light: not shown
heavy: not shown
chain: EVQLVESGGGVVQPGGSLRLSCAASGFTFSNYAMTWVRQAPEKGLEWVSSISGSGVSTYYADSVKGRFTISRDNSKNTLYLQMTRLTAEDTAVYFCAKEGSSETDDHYYNVDVWGQGTTVTVSSGGGGSGGGGSGGGGSEVQLVESGGGVVQPGGSLRLSCAASGFTFSNYAMTWVRQAPEKGLEWVSSISGSGVSTYYADSVKGRFTISRDNSKNTLYLQMTRLTAEDTAVYFCAKEGSSETDDHYYNVDVWGQGTTVTVSSASEPKSSDKTHTCPPCPAPEAAGGPSVFLFPPKPKDTLMISRTPEVTCVVVDVSHEDPEVKFNWYVDGVEVHNAKTKPREEQYNSTYRVVSVLTVLHQDWLNGKEYKCKVSNKALPAPIEKTISKAKGQPREPQVCTLPPSREEMTKNQVSLSCAVKGFYPSDIAVEWESNGQPENNYKTTPPVLDSDGSFFLVSKLTVDKSRWQQGNVFSCSVMHEALHNHYTQKSLSLSPGK
B2: PR004161 (bispecific antibody, human IgG1, kappa, L234A L235A)
light: not shown
heavy: not shown
chain: EVQLVESGGGVVQPGGSLRLSCAASGFTFSNYAMTWVRQAPEKGLEWVSSISGSGVSTYYADSVKGRFTISRDNSKNTLYLQMTRLTAEDTAVYFCAKEGSSETDDHYYNVDVWGQGTTVTVSSGGGGSGGGGSGGGGSEVQLVESGGGVVQPGGSLRLSCAASGFTFSNYAMTWVRQAPEKGLEWVSSISGSGVSTYYADSVKGRFTISRDNSKNTLYLQMTRLTAEDTAVYFCAKEGSSETDDHYYNVDVWGQGTTVTVSSASGGGGSGGGGSGGGGSEVQLVESGGGVVQPGGSLRLSCAASGFTFSNYAMTWVRQAPEKGLEWVSSISGSGVSTYYADSVKGRFTISRDNSKNTLYLQMTRLTAEDTAVYFCAKEGSSETDDHYYNVDVWGQGTTVTVSSASEPKSSDKTHTCPPCPAPEAAGGPSVFLFPPKPKDTLMISRTPEVTCVVVDVSHEDPEVKFNWYVDGVEVHNAKTKPREEQYNSTYRVVSVLTVLHQDWLNGKEYKCKVSNKALPAPIEKTISKAKGQPREPQVCTLPPSREEMTKNQVSLSCAVKGFYPSDIAVEWESNGQPENNYKTTPPVLDSDGSFFLVSKLTVDKSRWQQGNVFSCSVMHEALHNHYTQKSLSLSPGK

Molecular target: T1, cynomolgus monkey 4-1BB (cynomolgus monkey)
T1 construct: whole, on cells; also called CHO-K1-cyno 4-1BB; CHO-K1/cyno4-1BB
Assay: FACS, CHO-K1/cyno 4-1BB cells [C]

| Binder | EC50 | Maximum MFI |
| --- | --- | --- |
| B1 | 0.645 nM | 27200 MFI |
| B2 | 0.25 nM | 16800 MFI |
